pKi: −log10 of the molar value.
What was measured:
[1] = target: T1, D(2) dopamine receptor (Homo sapiens, UniProt P14416); assay: Displacement of [3H]spiperone from dopamine D2short receptor in CHO cells; format: cell-based
Procedure, shortened: (§1)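 Competition binding used membranes from stably transfected CHO cells expressing human D2long, D2short, D3 or D4.4 receptor, with [³H]spiperone at 0.1 nM final.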

By UniProt entry, the sequences of proteins in these tests, tags left out.
UniProt P14416, whole entry: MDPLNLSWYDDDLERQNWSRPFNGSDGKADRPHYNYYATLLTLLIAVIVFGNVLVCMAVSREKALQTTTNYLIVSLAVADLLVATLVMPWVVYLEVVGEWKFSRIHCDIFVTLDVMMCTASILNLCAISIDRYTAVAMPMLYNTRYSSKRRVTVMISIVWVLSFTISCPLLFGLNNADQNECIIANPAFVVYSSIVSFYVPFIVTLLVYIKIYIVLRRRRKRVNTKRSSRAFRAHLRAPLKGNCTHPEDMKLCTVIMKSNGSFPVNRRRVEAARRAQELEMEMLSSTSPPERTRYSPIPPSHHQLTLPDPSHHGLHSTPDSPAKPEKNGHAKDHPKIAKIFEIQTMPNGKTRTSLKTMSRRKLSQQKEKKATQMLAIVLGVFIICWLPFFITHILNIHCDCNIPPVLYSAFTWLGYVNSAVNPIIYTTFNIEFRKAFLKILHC

[2] = target: T1, D(2) dopamine receptor; assay: Displacement of [3H]spiperone from dopamine D2long receptor in CHO cells; format: cell-based; procedure, shortened: as §1

pKi [1]: 7.51
pKi [2]: 7.77
SMILES: CCN1CCC[C@H]1CNC(=O)c1c(O)c(Cl)cc(Cl)c1OC [RACLOPRIDE]
